Experimental data published in patent US20020082414A1.

Protein sequences, listed by entry. Tags and fused reporters are not part of them. Chains listed by the source or under a name are the forms on record and can include a tag or linker. Residues count along the entry.
UniProt P25101, 21-427 limits assumed, form in doubt: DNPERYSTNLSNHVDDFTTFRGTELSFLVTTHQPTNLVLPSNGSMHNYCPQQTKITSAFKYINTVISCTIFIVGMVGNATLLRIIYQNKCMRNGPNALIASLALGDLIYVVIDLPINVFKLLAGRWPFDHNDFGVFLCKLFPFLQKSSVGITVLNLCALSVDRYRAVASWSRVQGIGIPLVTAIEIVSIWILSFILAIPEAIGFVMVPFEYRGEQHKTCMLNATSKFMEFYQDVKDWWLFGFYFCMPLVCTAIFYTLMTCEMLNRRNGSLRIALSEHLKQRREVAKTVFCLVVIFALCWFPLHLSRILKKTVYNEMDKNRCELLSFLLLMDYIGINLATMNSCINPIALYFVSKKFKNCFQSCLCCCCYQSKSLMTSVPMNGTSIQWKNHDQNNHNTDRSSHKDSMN
UniProt P24530, 27-442 limits assumed, form in doubt: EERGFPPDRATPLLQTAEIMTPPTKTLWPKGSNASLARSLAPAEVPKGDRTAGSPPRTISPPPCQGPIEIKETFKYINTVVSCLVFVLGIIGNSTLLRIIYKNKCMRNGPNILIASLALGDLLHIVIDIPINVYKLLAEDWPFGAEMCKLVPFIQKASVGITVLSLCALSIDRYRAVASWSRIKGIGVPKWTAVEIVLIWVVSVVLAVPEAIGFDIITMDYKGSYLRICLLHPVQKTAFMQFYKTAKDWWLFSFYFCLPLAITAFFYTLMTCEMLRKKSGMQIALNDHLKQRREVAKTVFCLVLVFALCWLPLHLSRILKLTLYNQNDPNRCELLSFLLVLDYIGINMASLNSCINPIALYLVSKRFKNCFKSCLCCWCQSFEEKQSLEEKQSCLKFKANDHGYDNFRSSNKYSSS

Tests used:
[1] = target: human ETA-receptor (ET-receptor derived from phETIR) (human) (UniProt P25101); assay: cell-bound radioactivity, 50 pM 125I-ET-1 on COS-7 cells expressing the ETA-receptor, with 4×10^-7 M unlabeled ET-1
[2] = target: human ETA-receptor (ET-receptor derived from phETIR) (human) (UniProt P25101); assay: cell-bound radioactivity, 50 pM 125I-ET-1 on COS-7 cells expressing the ETA-receptor
[3] = target: human ETA-receptor (ET-receptor derived from phETIR) (human) (UniProt P25101); assay: displacement of 50 pM 125I-ET-1 from COS-7 cells expressing the ETA-receptor
[4] = target: human ETB-receptor (ET-receptor derived from pHETBR31 and pHETBR34) (human) (UniProt P24530); assay: displacement of 125I-ET-1 from COS-7 cells expressing the ETB-receptor

| Substance | background binding in the presence of 4×10^-7 M ET-1 [1] | total binding [2] | IC50 [3] | IC50 [4] |
| --- | --- | --- | --- | --- |
| 125I-labeled ET-1 (from UniProt P05305 53-73) (peptide) | 150 cpm | 6900 cpm | – | – |
| Endothelin 1 (from UniProt P05305 53-73) (peptide) | – | – | 3 nM | 1 nM |
